From ChEMBL document CHEMBL6096640, “Discovery of novel thiosemicarbazone-acridine targeting butyrylcholinesterase with antioxidant, metal complexing and neuroprotector abilities as potential treatment of Alzheimer's disease: In vitro, in vivo, and in silico studies” (Eur J Med Chem, 2025)

Protein sequences, listed by entry. Tags and fused reporters are not part of them. Lines headed by an entry give the natural chain unless they say otherwise; changes in a name come on top.
UniProt O42275: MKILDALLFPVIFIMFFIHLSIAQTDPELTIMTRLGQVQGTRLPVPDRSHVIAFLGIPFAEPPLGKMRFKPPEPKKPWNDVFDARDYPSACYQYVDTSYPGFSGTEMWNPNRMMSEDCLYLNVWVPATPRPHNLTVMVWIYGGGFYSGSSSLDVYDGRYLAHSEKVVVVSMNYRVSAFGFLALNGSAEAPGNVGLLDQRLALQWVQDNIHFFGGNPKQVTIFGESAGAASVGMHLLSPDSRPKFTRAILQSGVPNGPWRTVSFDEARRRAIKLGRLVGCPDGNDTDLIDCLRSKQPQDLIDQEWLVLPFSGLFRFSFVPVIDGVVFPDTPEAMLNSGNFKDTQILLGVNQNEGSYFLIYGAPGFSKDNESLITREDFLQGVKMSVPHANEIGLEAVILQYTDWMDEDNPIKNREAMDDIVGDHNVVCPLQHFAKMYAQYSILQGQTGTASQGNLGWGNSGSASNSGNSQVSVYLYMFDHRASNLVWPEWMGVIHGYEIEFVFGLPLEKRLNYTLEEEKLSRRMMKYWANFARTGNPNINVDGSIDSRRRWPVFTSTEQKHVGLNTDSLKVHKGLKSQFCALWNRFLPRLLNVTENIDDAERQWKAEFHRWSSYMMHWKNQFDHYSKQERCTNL

Biological target: Acetylcholinesterase (Electrophorus electricus, UniProt O42275)

CNC(=O)Oc1ccc2c(c1)[C@]1(C)CCN(C)[C@@H]1N2C [PHYSOSTIGMINE] showed an IC50 of 1560 nM.
